{"sequences": {"note": "Chains of the proteins cited; added tags and fusions are not shown. Lines headed by an entry give the natural chain unless they say otherwise; changes in a name come on top. Residues count along the entry.", "UniProt Q8TCU5, 24-1115": "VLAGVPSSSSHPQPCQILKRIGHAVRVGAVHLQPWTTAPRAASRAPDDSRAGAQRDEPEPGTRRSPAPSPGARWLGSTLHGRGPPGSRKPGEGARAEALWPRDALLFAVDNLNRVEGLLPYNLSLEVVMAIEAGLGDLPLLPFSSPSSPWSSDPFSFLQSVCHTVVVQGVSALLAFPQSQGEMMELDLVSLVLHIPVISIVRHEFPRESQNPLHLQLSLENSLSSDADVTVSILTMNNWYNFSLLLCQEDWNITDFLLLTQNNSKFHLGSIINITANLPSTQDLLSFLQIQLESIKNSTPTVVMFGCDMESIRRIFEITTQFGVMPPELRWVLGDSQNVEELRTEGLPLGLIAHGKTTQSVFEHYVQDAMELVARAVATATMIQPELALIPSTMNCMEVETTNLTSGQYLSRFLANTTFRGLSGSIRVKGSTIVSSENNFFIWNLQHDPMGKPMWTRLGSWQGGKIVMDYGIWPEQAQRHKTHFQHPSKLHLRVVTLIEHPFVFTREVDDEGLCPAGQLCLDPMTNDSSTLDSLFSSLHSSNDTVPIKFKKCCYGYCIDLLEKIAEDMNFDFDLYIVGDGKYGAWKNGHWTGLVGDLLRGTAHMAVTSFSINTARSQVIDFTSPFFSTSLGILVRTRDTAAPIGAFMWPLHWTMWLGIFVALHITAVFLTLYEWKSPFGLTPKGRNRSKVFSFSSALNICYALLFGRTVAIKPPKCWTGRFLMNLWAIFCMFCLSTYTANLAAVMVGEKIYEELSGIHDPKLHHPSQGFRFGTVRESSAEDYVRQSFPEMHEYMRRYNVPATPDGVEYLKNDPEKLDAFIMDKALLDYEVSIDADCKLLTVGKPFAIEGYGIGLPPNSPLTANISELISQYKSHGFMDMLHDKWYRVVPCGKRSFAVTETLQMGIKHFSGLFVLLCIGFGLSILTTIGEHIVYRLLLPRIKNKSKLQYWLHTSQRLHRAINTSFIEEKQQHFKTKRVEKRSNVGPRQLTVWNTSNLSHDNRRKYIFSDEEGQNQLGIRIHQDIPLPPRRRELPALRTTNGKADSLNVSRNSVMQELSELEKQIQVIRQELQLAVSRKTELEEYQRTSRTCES"}, "source": "paper PMC7596085", "about": "“The pathogenic S688Y mutation in the ligand-binding domain of the GluN1 subunit regulates the properties of NMDA receptors” (Scientific Reports, 2020)", "key": {"hGluN1-4a/hGluN3A": {"target": "hGluN1-4a/hGluN3A (UniProt P35439+Q8TCU5, I267L/M415L/N159S/R212K)", "conditions": "peak concentration-response, HEK293"}, "hGluN1-4a-S688Y/hGluN3A": {"target": "hGluN1-4a-S688Y/hGluN3A (UniProt P35439+Q8TCU5, I267L/M415L/N159S/R212K/S688Y)", "conditions": "peak concentration-response, HEK293"}, "[1]": {"target": "T1, hippocampal neurons expressing YFP-hGluN1-1a (Rattus norvegicus, UniProt P35439, I267L/M415L/N159S/R212K)", "T1 construct": "expressed in transfected cells; host or cells: primary rat hippocampal neurons (E18 Wistar), lentiviral infection with shRNA knock-down of endogenous GluN1", "assay": "NMDA-induced excitotoxicity, hippocampal neurons expressing YFP-hGluN1-1a", "type": "cell-based", "conditions": "10 µM co-agonist in the presence of 100 µM NMDA, 1 h treatment, measured 23 h later", "description": "Excitotoxicity was measured 23 h after treatment by staining cells with the nuclear marker Hoechst 33,342 and then performing complex image analysis (Fig. 6a,b; see \"Methods\").\nExcitotoxicity was induced as described previously. In brief, the cultured neurons were incubated overnight in 10% MEM (Thermo Fisher Scientific) and 90% salt-glucose (SG) medium containing 114 mM NaCl, 0.219% NaHCO3, 5.292 mM KCl, 1 mM MgCl2, 2 mM CaCl2, 10 mM HEPES, 30 mM glucose, […], and 0.1% phenol red. The following day, the media was replaced with 100% SG and the indicated concentrations of agonists/co-agonists were added to the neurons. […] Nuclear area was measured using ImageJ software (v. 1.52p), and custom-made macro scripts were used to automatically measure only the nuclei of infected cells (identified by YFP expression). […] The ratio of the number of cells in each group was then used to estimate the effects of mixing the two distributions and is expressed as the ratio of pyknotic and non-pyknotic cells. The percentage of pyknotic cells in each condition was then calculated as the number of cells classified as pyknotic divided by the total number of cells in that condition."}}}
{"smiles": "NCC(=O)O", "note": "[glycine]", "values": [{"measurement": "Hill coefficient (h)", "setting": "hGluN1-4a/hGluN3A", "value": "1.26 ± 0.24"}, {"measurement": "Hill coefficient (h)", "setting": "hGluN1-4a-S688Y/hGluN3A", "value": "1.49 ± 0.10"}, {"measurement": "neuronal cell death / excitotoxicity (% of d.n., pyknotic nuclei)", "setting": "[1]", "value": "~100", "unit": "%"}]}
